Description: (§1) 2.5 mL solutions of each excipient with each concentration were prepared by serial dilution of the saturated solution. One vial for each excipient experiment was prepared with 2.5 ml water. To each vial, 50 mg olaparib was added, sonicated, vortexed, and shaken at 40° C. for over 20 hr. After agitation at 25° C., the suspensions were filtered to obtain clear solutions. The clear solutions were analyzed using HPLC.
as §1, with “600 mg/mL” for “saturated”, “mL” for “ml”, “hours.” for “hr.”

Substance: hydroxypropyl-γ-cyclodextrin [HP-γ-cyclodextrin]
- Solubility Enhancement Factor: 46
- olaparib water solubility improvement by excipient: 46 fold

— patent publication US12383633B1, “Injectable formulations of PARP inhibitors and uses thereof” (ZYMERON CORPORATION, priority 2024, dated 2025)
